## Measured affinities in a library of Ab-14 light chain variants

Values reported by Li et al. 2023, doi:10.1038/s41467-023-39022-2 (FLAb copy).

Target peptide (SARS-CoV-2 spike, HR2 region): PDVDLGDISGINAS

Ab-14 is the parent antibody, in scFv form: VH, then a (GGGGS)3 linker, then VL. The heavy chain is unchanged in all variants.
VH: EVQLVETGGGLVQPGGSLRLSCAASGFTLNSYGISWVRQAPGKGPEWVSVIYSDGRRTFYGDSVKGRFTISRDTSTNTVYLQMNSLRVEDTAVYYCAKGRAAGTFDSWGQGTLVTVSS
VL: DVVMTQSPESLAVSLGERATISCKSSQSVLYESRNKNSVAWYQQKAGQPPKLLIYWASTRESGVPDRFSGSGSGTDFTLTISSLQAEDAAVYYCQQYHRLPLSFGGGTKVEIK

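Phage display of a naive human antibody library on the peptide gave the parent. These sequences belong to a second round, designed from the earlier measurements on random variants of the parent. Several design methods are mixed in this list. In AlphaSeq, yeast of one mating type display the scFv and yeast of the other type display the target. Pairs that bind mate more often; barcode pairs of the diploids are counted by sequencing. The ratio of observed to expected reads was calibrated, replicate by replicate, on BCL2-family standards whose Kd was known from biolayer interferometry. There are six technical replicates.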

The whole VL of each variant is written out.
This list holds designs with at most six substitutions.
Kd is apparent (estimated from mating counts) and averaged on the log scale over replicates with a signal. Smaller is tighter.
Entries are sorted by rising average.

Variant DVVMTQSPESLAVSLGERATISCKLMQSVLYESRNKNSVAWYQQKAGQPPKLLIYNGSTRESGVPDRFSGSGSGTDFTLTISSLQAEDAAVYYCQQYHRLPLSFGGGTKVEIK showed 530 pM (6 of 6 replicates). Variant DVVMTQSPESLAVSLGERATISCKLRQSTLYESRNKNSVAWYQQKAGQPPKLLIYSASTRESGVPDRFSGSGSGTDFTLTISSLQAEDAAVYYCQQYHRLPLSFGGGTKVEIK showed 580 pM (6 of 6 replicates). Variant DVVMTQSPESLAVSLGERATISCKLPQSMLYESRNKNSVAWYQQKAGQPPKLLIYDASQRESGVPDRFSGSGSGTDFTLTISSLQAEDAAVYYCQQYHRLPLSFGGGTKVEIK gave 600 pM (6 of 6 replicates). Variant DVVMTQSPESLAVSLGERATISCKLSQSNLYESRNKNSVAWYQQKAGQPPKLLIYEASTREVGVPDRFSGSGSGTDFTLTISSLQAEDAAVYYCQQYHRLPLSFGGGTKVEIK showed 610 pM (6 of 6 replicates). For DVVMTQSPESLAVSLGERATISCKVSQSVAYESRTKNSVAWYQQKAGQPPKLLIYNASTRESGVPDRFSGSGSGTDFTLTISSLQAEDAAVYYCQQYHRLPLSFGGGTKVEIK, the assay gave 660 pM (6 of 6 replicates).

With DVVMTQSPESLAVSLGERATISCKVSQSFLMESRNKNSVAWYQQKAGQPPKLLIYEASTRESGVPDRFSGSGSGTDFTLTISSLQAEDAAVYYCQQYHRLPLSFGGGTKVEIK the result was 870 pM (6 of 6 replicates). With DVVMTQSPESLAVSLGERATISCKVSQSWLMESRNKNSVAWYQQKAGQPPKLLIYEASTRFSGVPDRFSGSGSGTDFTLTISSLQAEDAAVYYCQQYHRLPLSFGGGTKVEIK the result was 1.4 nM (6 of 6 replicates). With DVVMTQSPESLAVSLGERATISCKLSQSQLYESRNKNQVAWYQQKAGQPPKLLIYSASTREMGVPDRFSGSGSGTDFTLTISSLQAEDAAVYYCQQYHRLPLSFGGGTKVEIK the result was 1.4 nM (6 of 6 replicates). Variant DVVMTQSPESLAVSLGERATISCKASQSVLYESVNKNSVAWYQQKAGQPPKLLIYDASTRESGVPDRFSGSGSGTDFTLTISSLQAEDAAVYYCQQYHRLPLSFGGGTKVEIK gave 1.6 nM (6 of 6 replicates). For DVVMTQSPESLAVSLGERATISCKSSQSGLYESRNKNSVAWYQQKAGQPPKLLIYNSSTRESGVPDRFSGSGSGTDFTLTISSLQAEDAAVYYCQQYHRLPLSFGGGTKVEIK, the assay gave 1.6 nM (6 of 6 replicates).

For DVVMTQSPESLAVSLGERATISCKSSISNLYESRNTNSVAWYQQKAGQPPKLLIYEASTRESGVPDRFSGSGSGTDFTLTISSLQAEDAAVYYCQQYHRLPLSFGGGTKVEIK, the assay gave 1.7 nM (6 of 6 replicates). With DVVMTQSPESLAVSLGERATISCTSSQSVMLESRNKNSVAWYQQKAGQPPKLLIYNASTRESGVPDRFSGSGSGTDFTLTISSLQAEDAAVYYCQQYHRLPLSFGGGTKVEIK the result was 3.0 nM (6 of 6 replicates). Variant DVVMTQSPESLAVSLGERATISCKVSQSWLYEDRVKNSVAWYQQKAGQPPKLLIYGAQTRESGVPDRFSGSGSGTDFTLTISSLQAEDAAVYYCQQYHRLPLSFGGGTKVEIK gave 4.2 nM (6 of 6 replicates). With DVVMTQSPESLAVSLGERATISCKSSQSVLYESRNKNSVAWYQQKAGQPPKLLIYEASTREVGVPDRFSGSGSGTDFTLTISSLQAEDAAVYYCQQYHRLELSFGGGTKVEIK the result was 10 nM (6 of 6 replicates). For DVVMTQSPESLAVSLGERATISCKFSQSVLYESRTQNSVAWYQQKAGQPPKLLIYNAVTRETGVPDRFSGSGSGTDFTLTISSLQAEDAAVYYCQQYHRLPLSFGGGTKVEIK, the assay gave 11 nM (6 of 6 replicates).

Variant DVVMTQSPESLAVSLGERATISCKSSQSVLYHSRNKNSVAWYQQKAGQPPKLLIYWASTREHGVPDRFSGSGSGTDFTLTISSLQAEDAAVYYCQQYHRLPLSFGGGTKVEIK gave 19 nM (6 of 6 replicates). With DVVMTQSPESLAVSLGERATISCKLVGSTLYESRQKNSVAWYQQKAGQPPKLLIYWASTRESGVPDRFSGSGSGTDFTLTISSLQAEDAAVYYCQQYHRLPLSFGGGTKVEIK the result was 31 nM (5 of 6 replicates). Variant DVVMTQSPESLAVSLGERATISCKSSQSMLYESYEKNSVAWYQQKAGQPPKLLIYWASTRESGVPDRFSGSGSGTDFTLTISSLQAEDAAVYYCQQYHRLPLSFGGGTKVEIK gave 73 nM (6 of 6 replicates). Variant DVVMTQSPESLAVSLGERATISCKSSQSVLYEKRNKNSVAWYQQKAGQPPKLLIYYASTRESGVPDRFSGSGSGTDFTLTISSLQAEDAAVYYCQQGHRPPLSFGGGTKVEIK showed 100 nM (1 of 6 replicates). Variant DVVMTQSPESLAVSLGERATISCKSSHSVLNESRNANSVAWYQQKAGQPPKLLIYWGSTRESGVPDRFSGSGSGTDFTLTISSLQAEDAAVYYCQTYHCLPLSFGGGTKVEIK showed 470 nM (4 of 6 replicates).

Top 2 of the variants detected in all replicates, tightest first:

For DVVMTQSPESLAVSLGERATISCKLMQSVLYESRNKNSVAWYQQKAGQPPKLLIYNGSTRESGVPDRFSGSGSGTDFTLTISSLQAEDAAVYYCQQYHRLPLSFGGGTKVEIK, the assay gave 530 pM (6 of 6 replicates).
For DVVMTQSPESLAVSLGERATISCKLRQSTLYESRNKNSVAWYQQKAGQPPKLLIYSASTRESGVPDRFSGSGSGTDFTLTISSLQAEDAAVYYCQQYHRLPLSFGGGTKVEIK, the assay gave 580 pM (6 of 6 replicates).

As a blank, each scFv also met three strains without target: over all light chain designs, 4% of these pairings were detected, typically at 430 nM and seldom below 38 nM.
A sequence measured in both rounds can read differently, since the two assays cover different ranges.
In the paper, a design with two or fewer of six values counts as a poor binder.